Literature values in patent US7604797B2, “Compositions and methods for treating burns” (BioMechanisms Inc., priority 2003, dated 2009).

Test system: burn patients
Details: in vivo

## Neomycin
  Toxicity and adverse effects in use: Ototoxicity and
